Target: PDE6D/avi-K-RasFMe (Homo sapiens, UniProt O43924)
Test: SPR inhibition of PDE6D binding to captured avi-K-RasFMe
Settings: read-out: IC50 ± SEM, inhibition of PDE6D/avi-K-RasFMe, 1.25 μM PDE6D, n = 3

The chains behind the UniProt entries cited, without tags or fusion partners. Where a name states a change or a piece, a line headed by the entry shows the natural chain unless it says otherwise.
UniProt O43924: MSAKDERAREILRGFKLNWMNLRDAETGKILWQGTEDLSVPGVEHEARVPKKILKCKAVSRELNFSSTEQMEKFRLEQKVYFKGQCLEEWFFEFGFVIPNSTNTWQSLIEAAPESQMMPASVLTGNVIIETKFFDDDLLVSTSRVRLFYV

IC50: 1.9 ± 0.1 µM
Structure (SMILES): c1ccc(Cn2c(-c3ccc(OC[C@H](C4CCNCC4)n4c(-c5ccccc5)nc5ccccc54)cc3)nc3ccccc32)cc1 [Deltarasin, reference compound]
